Results: PubChem BioAssay AID1347072 (National Center for Advancing Translational Sciences (NCATS), 2019)
Only a part is listed here, and it is no random draw. Some results for these compounds are left out of this collection, so the calls shown say nothing about other tests. Calls of active or inactive are those of the source. Calls follow the shape of the dose curve; as a rule, active = well fitted curve in the direction sought with a large enough effect; inconclusive = small, poorly fitted or top-dose-only effect, or another doubt; inactive = no such curve, though single readings can be large or run the other way.

Protein sequences, listed by entry. Tags and fused reporters are not part of them.
UniProt P51570, whole entry: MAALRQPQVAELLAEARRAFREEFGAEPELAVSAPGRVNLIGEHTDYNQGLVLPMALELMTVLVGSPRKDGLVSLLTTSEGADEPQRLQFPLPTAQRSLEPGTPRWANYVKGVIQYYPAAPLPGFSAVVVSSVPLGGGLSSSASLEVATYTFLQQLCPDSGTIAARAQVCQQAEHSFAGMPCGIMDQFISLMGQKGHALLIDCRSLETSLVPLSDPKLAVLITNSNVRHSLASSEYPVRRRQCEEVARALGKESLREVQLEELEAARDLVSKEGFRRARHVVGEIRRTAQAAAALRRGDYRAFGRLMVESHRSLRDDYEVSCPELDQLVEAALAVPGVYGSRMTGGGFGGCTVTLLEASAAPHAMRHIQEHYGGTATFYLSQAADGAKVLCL

Target: Galactokinase (Homo sapiens) (UniProt P51570)
Test: qHTS Assay for Inhibitors of Human Galactokinase (GALK): NCGC Sytravon Library Screen;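 also: plate controls were full GALK reaction for no effect and reaction lacking GALK for full effect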
Conditions: recombinant GALK, Kinase-Glo ATP luminescence, 1 h; at 57.5 µM (top of the series)
From the text: Inherited deficiency of galactose-1-phosphate uridyltransferase (GALT) can result in a potentially lethal disorder called Classic Galactosemia (OMIM 230400). Several lines of evidence indicate that an elevated level of galactose-1-phosphate (gal-1-p), the product of galactokinase (GALK), is a major, if not sole, pathogenic mechanism in patients with classic galactosemia. Therefore, finding inhibitors of GALK is a potential novel therapy for this inherent metabolic disease and is the long term goal of this project. This screen is run against the NCGC Sytravon compound library collection. GALK (provided by Kent Lai) was assayed using ATP and D-(+)-Galactose (Sigma-Aldrich cat# G0750) as substrates. Promega Kinase-Glo Plus technology was used to detect kinase activity. Reactions with and without GALK were used as negative and positive controls together with Protein Tyrosine Phosphatase CD45 inhibitor (EMD Bioscience cat# 540215) which is shown to inhibit GALK activity. Decrease in activity corresponds to inhibition of the enzyme is the desired outcome for this assay. NIH Molecular Libraries Probe Production Network [MLPCN] NIH Chemical Genomics Center [NCGC] Grant: R03 MH085689-01 PI Name: Kent Lai Ph.D., University of Utah
NCGC Assay Protocol Summary: Three uL/well of ATP-buffer solution (35 uM ATP, 20mM HEPES pH8.0, 5 mM MgCl2, 60 mM NaCl, 1 mM DTT, 0.01% BSA final concentration) was dispensed into 1536-well, assay plates (Greiner, solid white medium-binding plates) with Aurora Discovery BioRAPTR Flying Reagent Dispenser (FRD; Beckton-Dickenson). Compound solution (23 nL) was transferred to the assay plate using the Kalypsys 1536-pin tool. One uL/well GALK-galactose solution (5 nM GALK, 100 uM galactose, 20 mM HEPES pH8.0, 5 mM MgCl2, 60 mM NaCl, 1 mM DTT, 0.01% BSA final concentration) was then added using the FRD yielding a total kinase reaction volume of 4 uL/ well. After 1 hour of room temperature incubation, 4 uL Kinase-Glo Plus reagent was added for a final assay volume of 8 uL/ well. Luminescence was detected with the ViewLux plate reader (Perkin Elmer, Waltham, MA) after 10 min incubation using a 1 sec exposure time and 2x binning.

| SMILES | activity, negative = inhibition |
| --- | --- |
| CN(C)C1(CNC(=O)c2ccccc2F)CCCCC1 | inactive: 6.85% |
| CN(C)C1(CNC(=O)c2cccc(Cl)c2)CCCCC1 | inactive: -6.23% |
| CCCCOc1ccccc1C(=O)NCC1(N(C)C)CCCCC1 | inactive: 1.59% |
| CN(C)C1(CNC(=O)c2ccccc2[N+](=O)[O-])CCCCC1 | inactive: 3.08% |
| COc1ccc(C(=O)NCC2(N(C)C)CCCCC2)cc1Cl | inactive: 2.37% |
| CC(C)Oc1ccc(C(=O)NCC2(N(C)C)CCCCC2)cc1 | inactive: 0% |
| COc1cc(C(=O)NCC2(N(C)C)CCCCC2)cc(OC)c1OC | inactive: -4.19% |
| Cc1cccc(C(=O)NCC2(N(C)C)CCCCC2)c1 | inactive: 0% |
| CC(C)COc1ccc(C(=O)NCC2(N(C)C)CCCCC2)cc1 | inactive: -2.13% |
| COc1cccc(C(=O)NCC2(N3CCOCC3)CCCCC2)c1 | inactive: 0.505% |
